This is an account of results in patent US8778958B2, “Synthesis of metabolically stable agents for alcohol and drug abuse” (priority 2008, dated 2014).

Chains of the proteins cited; added tags and fusions are not shown.
UniProt P35372, whole entry: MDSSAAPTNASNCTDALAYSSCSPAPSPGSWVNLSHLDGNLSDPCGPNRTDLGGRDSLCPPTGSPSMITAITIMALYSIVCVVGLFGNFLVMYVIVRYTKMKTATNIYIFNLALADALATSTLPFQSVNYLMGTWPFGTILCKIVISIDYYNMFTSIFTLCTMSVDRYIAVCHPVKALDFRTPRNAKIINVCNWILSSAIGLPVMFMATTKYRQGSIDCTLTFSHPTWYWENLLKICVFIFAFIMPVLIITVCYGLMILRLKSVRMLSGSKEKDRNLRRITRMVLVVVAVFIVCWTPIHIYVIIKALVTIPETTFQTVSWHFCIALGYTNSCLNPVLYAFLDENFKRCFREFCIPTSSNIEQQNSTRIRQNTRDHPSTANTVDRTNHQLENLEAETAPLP

The target in one assay is δ-opioid receptor (Homo sapiens, UniProt P41143). The assay is described as follows: Competitive radioligand binding, δ-opioid receptor. Conditions: Table 1b; concentration not given.
The target of the next assay is κ-opioid receptor (Homo sapiens, UniProt P41145). The assay is described as follows: Competitive radioligand binding, κ-opioid receptor ([3H]U69593). The conditions noted are these: read-out: Ki (nM) ± SEM, κ; Table 1b, N-oxides.
A further assay deals with μ-opioid receptor (Homo sapiens, UniProt P35372). Put plainly: Competitive radioligand binding, μ-opioid receptor ([3H]DAMGO). Conditions: read-out: Ki (nM) ± SEM, μ; Table 1b, N-oxides.

Bounds are passed on as bounds.

Regarding `O=C(Cc1ccccn1)N[C@@H]1CC[C@@]2(O)[C@H]3Cc4ccc(O)c5c4[C@@]2(CC[N+]3([O-])CC2CC2)[C@H]1O5` (stereo partly drawn), the “Inhibition of agonist binding, δ” value at δ-opioid receptor is reported as less than 50% inh. The Ki on κ-opioid receptor was determined as 100 nM; at μ-opioid receptor it was 114 nM.
